Measurements from PubChem BioAssay AID602440 (Sanford-Burnham Center for Chemical Genomics, 2012).
The list shows a part of the results, in another mix than the full data. Calls of active or inactive are those of the source. No stated cut-off is given here; in the data, active means inhibition mostly above about 40% (no sharp cut-off); inactive means mostly below about 27%.

The chains behind the UniProt entries cited, without tags or fusion partners. Where a name states a change or a piece, a line headed by the entry shows the natural chain unless it says otherwise.
UniProt Q96LD8: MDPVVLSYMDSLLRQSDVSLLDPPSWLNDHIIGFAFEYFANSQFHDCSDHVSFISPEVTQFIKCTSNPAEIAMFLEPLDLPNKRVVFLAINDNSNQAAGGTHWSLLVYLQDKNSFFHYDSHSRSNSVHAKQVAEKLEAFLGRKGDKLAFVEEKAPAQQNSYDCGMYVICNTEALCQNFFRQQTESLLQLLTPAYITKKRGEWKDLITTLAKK

Biological target: Sentrin-specific protease 8 (Homo sapiens) (UniProt Q96LD8)
Experiment: human SENP8 protease inhibitors, primary screen, biochemical, fluorescence, Nedd8 protein substrate, uHTS (AID 602440)
Conditions: recombinant SENP8, Nedd8 substrate fluorescence; at 20 µM; stronger effect = higher value

With Cc1ccc(NP(=O)(Oc2ccccc2)Oc2ccccc2)nc1 as the compound, how does the inhibition read?
Its inhibition is inactive: -197%.

Which inhibition does the source give for O=[N+]([O-])c1cccc2n[nH]nc12 here?
Its inhibition is inactive: 22.8%.

For CC(=O)N1C2C3N(C(C)=O)C1C1N(C(C)=O)C(C(N1C(C)=O)N3C(C)=O)N2C(C)=O, which inhibition is on record?
The inhibition was inactive: 20.5%.

Which inhibition does the source give for O=[N+]([O-])c1ncn(CCn2ncnc2[N+](=O)[O-])n1 here?
The inhibition was inactive: 30%.

With CC(C)(C)C(=O)NC(Sc1ccncn1)C(Cl)(Cl)Cl (stereo not given) as the compound, how does the inhibition read?
Its inhibition is inactive: 12%.

For O=C(O)CNc1ccc([As](=O)(O)O)cc1, which inhibition is on record?
The inhibition was inactive: 13.7%.

For O=[N+]([O-])c1cccc(NC2=NCC(CBr)S2)c1 (stereo not given), which inhibition is on record?
Its inhibition is inactive: -39%.

Which inhibition does the source give for COC(=O)C1(C)COP(=O)(Nc2ccccc2)OC1 (stereo not given) here?
Its inhibition is inactive: 18%.

For O=P1(N(CCCl)CCCl)OCCCS1 (stereo not given), which inhibition is on record?
Its inhibition is inactive: 14.6%.

How did the inhibition turn out when O=C(Nc1cc([As](=O)(O)O)ccc1O)c1ccccc1 was run?
The inhibition was inactive: 28.8%.

Nc1cccc2ccc([As](=O)(O)O)cc12 was tested. Which inhibition did it give?
The inhibition was inactive: -304%.

CCN(N=Nc1nonc1N)c1nonc1N was tested. Which inhibition did it give?
The inhibition was inactive: 6.2%.

Which inhibition does the source give for CN(C)P(=O)(N(C)C)n1c(Nc2ccccc2)nnc1-c1ccccc1 here?
The inhibition was inactive: 4.2%.

O=P(Nc1nc2ccc(Cl)cc2s1)(c1ccccc1)c1ccccc1 was tested. Which inhibition did it give?
Its inhibition is inactive: 3.7%.

With CCCC1OP(N)(=O)OCC1CC (stereo not given) as the compound, how does the inhibition read?
The inhibition was inactive: 13.4%.

How did the inhibition turn out when O=C(O)c1ccccc1[As](=O)(O)O was run?
The inhibition was inactive: 20.1%.

CC(=O)Nc1ccc([As](=O)(O)O)cc1 was tested. Which inhibition did it give?
Its inhibition is inactive: 2.8%.

Cc1ccc(NP(=O)(Oc2ccccc2F)Oc2ccccc2F)nc1 was tested. Which inhibition did it give?
The inhibition was inactive: -106%.

With CN(C(=O)Cc1ccc(Cl)c(Cl)c1)[C@H]1CCCC[C@@H]1N1CCCC1 as the compound, how does the inhibition read?
The inhibition was inactive: 4.5%.

How did the inhibition turn out when CCOP(=O)(Nc1ccccc1)OCC was run?
The inhibition was inactive: 13.8%.

Which inhibition does the source give for Cc1cc(SC(NC(=O)c2ccc(F)cc2)C(Cl)(Cl)Cl)ncn1 (stereo not given) here?
Its inhibition is inactive: 21%.

How did the inhibition turn out when O=C(NC(Sc1ccncn1)C(Cl)(Cl)Cl)c1ccccc1 (stereo not given) was run?
Its inhibition is inactive: 7.1%.

With Oc1ccccc1CNc1ccccn1 as the compound, how does the inhibition read?
Its inhibition is inactive: -0.7%.

For CC(C)CC(=O)NC(Sc1ccc(Cl)cc1)C(Cl)(Cl)Cl (stereo not given), which inhibition is on record?
Its inhibition is inactive: 18.5%.

With Nc1cc(N)c2nonc2c1[N+](=O)[O-] as the compound, how does the inhibition read?
Its inhibition is inactive: 26.1%.

O=[N+]([O-])C1C(O)C(O)C([N+](=O)[O-])C(O)C1O (stereo not given) was tested. Which inhibition did it give?
The inhibition was inactive: 11.8%.

Cc1ccc(N/C(=N/P(=O)(N2CCOCC2)N2CCOCC2)N2CCOCC2)cc1 was tested. Which inhibition did it give?
The inhibition was inactive: 2.1%.

For CN(C(=O)Cc1ccc(Cl)c(Cl)c1)[C@H]1CCCC[C@H]1N1CCCC1, which inhibition is on record?
Its inhibition is inactive: 7.7%.

With NC(=O)c1cc([N+](=O)[O-])cc([N+](=O)[O-])c1N as the compound, how does the inhibition read?
Its inhibition is inactive: 2.1%.

Which inhibition does the source give for Clc1ccc(Cl)c(NC2=NCC(CBr)S2)c1 (stereo not given) here?
Its inhibition is inactive: 5.5%.

CN1CCCC(OC(=O)C(c2ccccc2)c2ccccc2)C1 (stereo not given) was tested. Which inhibition did it give?
The inhibition was inactive: 10.6%.

How did the inhibition turn out when Cc1ccc(OP(=O)(Nc2nccs2)Oc2ccc(C)cc2)cc1 was run?
The inhibition was inactive: 19%.

For COc1ccccc1OP(=O)(Nc1ccc(C)cn1)Oc1ccccc1OC, which inhibition is on record?
The inhibition was inactive: -125%.

C[C@@H]1C=CCP(=O)(Oc2ccccc2)O1 (stereo not given in full) was tested. Which inhibition did it give?
The inhibition was inactive: 16.2%.

C[C@H]1OP(=O)(Oc2ccccc2)C[C@@H]2O[C@@H]21 (stereo not given in full) was tested. Which inhibition did it give?
Its inhibition is inactive: 10.7%.

Cc1ccccc1CN(C)C(=O)COC(=O)C(O)(c1ccccc1)c1ccccc1 was tested. Which inhibition did it give?
Its inhibition is inactive: -1%.

COC(=O)C1(C)COP(=O)(NCc2ccccc2)OC1 (stereo not given) was tested. Which inhibition did it give?
Its inhibition is inactive: 16%.

Which inhibition does the source give for N#C/C(=C\c1ccc(N(CCBr)CCBr)cc1)C(N)=O here?
The inhibition was inactive: -104%.

For CC(=O)c1ccc(N2CC2c2ccncc2)cc1 (stereo not given), which inhibition is on record?
The inhibition was inactive: 1.1%.

CC(=O)Nc1ccc(Oc2c([N+](=O)[O-])cc([N+](=O)[O-])cc2[N+](=O)[O-])cc1 was tested. Which inhibition did it give?
Its inhibition is inactive: 20%.

CC(=O)Nc1ccc([As](=O)(O)O)c(O)c1 was tested. Which inhibition did it give?
The inhibition was inactive: 26.5%.

How did the inhibition turn out when CCOc1ccc(C2=NCC(CBr)S2)cc1 (stereo not given) was run?
The inhibition was inactive: -1.9%.

For O=P1(Nc2nc3ccc(Cl)cc3s2)COc2ccccc2O1 (stereo not given), which inhibition is on record?
The inhibition was inactive: 20.5%.

For CC(C)(C)C(=O)NC(Sc1ccccc1)C(Cl)(Cl)Cl (stereo not given), which inhibition is on record?
The inhibition was inactive: -3.2%.

Which inhibition does the source give for CCc1cc(O)c([N+](=O)[O-])c(C)c1[N+](=O)[O-] here?
Its inhibition is inactive: 18%.

Which inhibition does the source give for CCC(=O)N1C2C3N(C(=O)CC)C1C1N(C(=O)CC)C(C(N1C(=O)CC)N3C(=O)CC)N2C(=O)CC here?
Its inhibition is inactive: 25.1%.

O=C(OC1CN2CCC1CC2)c1ccccc1 (stereo not given) was tested. Which inhibition did it give?
Its inhibition is inactive: 12.2%.

For Cc1ccc(OP(=O)(Nc2ccccn2)Oc2ccc(C)cc2)cc1, which inhibition is on record?
The inhibition was inactive: 5.1%.

For CC(=O)NC(SC(=S)N(CC(C)C)CC(C)C)C(Cl)(Cl)Cl (stereo not given), which inhibition is on record?
Its inhibition is inactive: 19.7%.

With COC(=O)c1cc2c(s1)N=C(c1ccccc1)N(C)P2(=O)N1CCOCC1 (stereo not given) as the compound, how does the inhibition read?
The inhibition was inactive: 7.9%.

Which inhibition does the source give for CN(C)C(=O)Oc1noc2ccccc12 here?
Its inhibition is inactive: 8.9%.

With O=c1c2cc([N+](=O)[O-])ccc2[nH]c2c([N+](=O)[O-])cc([N+](=O)[O-])cc12 as the compound, how does the inhibition read?
Its inhibition is active: 70.2%.

With Cc1ccccc1OP(=O)(Nc1ccccn1)Oc1ccccc1C as the compound, how does the inhibition read?
Its inhibition is inactive: -52%.

How did the inhibition turn out when CC(NC(=O)COC(=O)C(O)(c1ccccc1)c1ccccc1)c1ccccc1 (stereo not given) was run?
The inhibition was inactive: 9.1%.

For Cc1ccc(NP(=O)(Oc2cccc(C)c2)Oc2cccc(C)c2)nc1, which inhibition is on record?
Its inhibition is inactive: -122%.

c1ccc(-c2nn[nH]n2)c(-c2nn[nH]n2)c1 was tested. Which inhibition did it give?
The inhibition was inactive: 8%.

CCNC(=S)/N=C(\N)N[N+](=O)[O-] was tested. Which inhibition did it give?
Its inhibition is inactive: 15.1%.

O=C(NC1CCS(=O)(=O)C1)NP(=S)(Oc1ccccc1)Oc1ccccc1 (stereo not given) was tested. Which inhibition did it give?
Its inhibition is inactive: 9.8%.

For O=P1(N(CCCl)CCCl)OCCC2CCCCN21 (stereo not given), which inhibition is on record?
Its inhibition is inactive: 11.9%.

O=[As](O)(c1ccccc1)c1ccc(O)cc1 was tested. Which inhibition did it give?
The inhibition was inactive: 18.4%.

How did the inhibition turn out when O=[N+]([O-])c1ccc(O)c(/C=N/Nc2ccc([N+](=O)[O-])cc2[N+](=O)[O-])c1 was run?
Its inhibition is active: 42.3%.

How did the inhibition turn out when O=[N+]([O-])c1ncn(CCn2cnc([N+](=O)[O-])n2)n1 was run?
The inhibition was inactive: 12.8%.

For CC(=O)NC(SC(=S)N(C)C)C(Cl)(Cl)Cl (stereo not given), which inhibition is on record?
The inhibition was inactive: 16.4%.

With O=C(OC1CN2CCC1CC2)c1cccc(Cl)c1 (stereo not given) as the compound, how does the inhibition read?
The inhibition was inactive: 12%.

Nc1ccc([As](=O)(O)c2ccc([N+](=O)[O-])cc2)cc1 was tested. Which inhibition did it give?
Its inhibition is inactive: 13%.

How did the inhibition turn out when C(Cc1nn[nH]n1)Cc1nn[nH]n1 was run?
Its inhibition is inactive: 7%.

For O=P(Nc1ccccn1)(c1ccc(Br)cc1)c1ccc(Br)cc1, which inhibition is on record?
The inhibition was inactive: -64.9%.

Which inhibition does the source give for CN(C)C1(CNC(=O)c2ccc(Cl)c(S(N)(=O)=O)c2)CCCCC1 here?
The inhibition was inactive: 6.9%.

With Nc1ccc(CCCCOc2ccccc2)cc1 as the compound, how does the inhibition read?
The inhibition was inactive: 31.1%.

COc1ccc(N)c([N+](=O)[O-])c1[N+](=O)[O-] was tested. Which inhibition did it give?
The inhibition was inactive: 33.4%.

Which inhibition does the source give for C[C@H]1OP(=O)(Oc2ccccc2)[C@H](O)[C@H](O)[C@H]1N=[N+]=[N-] (stereo not given in full) here?
Its inhibition is inactive: 13.1%.

How did the inhibition turn out when O=P(Nc1nc2ccccc2s1)(c1ccccc1)c1ccccc1 was run?
The inhibition was inactive: 20%.

CC(C)C(=O)NC(Sc1ccccc1)C(Cl)(Cl)Cl (stereo not given) was tested. Which inhibition did it give?
Its inhibition is inactive: 25.5%.

Which inhibition does the source give for O=P(Nc1nccs1)(c1ccccc1)c1ccccc1 here?
Its inhibition is inactive: 3.2%.

Which inhibition does the source give for c1nnnn1CCn1cnnn1 here?
Its inhibition is inactive: 8.1%.
